Data published in paper PMC11744769, “Modulation of the mechanism of action of antibacterial silver N-heterocyclic carbene complexes by variation of the halide ligand” (RSC Advances, 2025).

Amino acid sequences for entries named in this document (tags omitted). Residues count along the entry.
UniProt P00722, 2-1024: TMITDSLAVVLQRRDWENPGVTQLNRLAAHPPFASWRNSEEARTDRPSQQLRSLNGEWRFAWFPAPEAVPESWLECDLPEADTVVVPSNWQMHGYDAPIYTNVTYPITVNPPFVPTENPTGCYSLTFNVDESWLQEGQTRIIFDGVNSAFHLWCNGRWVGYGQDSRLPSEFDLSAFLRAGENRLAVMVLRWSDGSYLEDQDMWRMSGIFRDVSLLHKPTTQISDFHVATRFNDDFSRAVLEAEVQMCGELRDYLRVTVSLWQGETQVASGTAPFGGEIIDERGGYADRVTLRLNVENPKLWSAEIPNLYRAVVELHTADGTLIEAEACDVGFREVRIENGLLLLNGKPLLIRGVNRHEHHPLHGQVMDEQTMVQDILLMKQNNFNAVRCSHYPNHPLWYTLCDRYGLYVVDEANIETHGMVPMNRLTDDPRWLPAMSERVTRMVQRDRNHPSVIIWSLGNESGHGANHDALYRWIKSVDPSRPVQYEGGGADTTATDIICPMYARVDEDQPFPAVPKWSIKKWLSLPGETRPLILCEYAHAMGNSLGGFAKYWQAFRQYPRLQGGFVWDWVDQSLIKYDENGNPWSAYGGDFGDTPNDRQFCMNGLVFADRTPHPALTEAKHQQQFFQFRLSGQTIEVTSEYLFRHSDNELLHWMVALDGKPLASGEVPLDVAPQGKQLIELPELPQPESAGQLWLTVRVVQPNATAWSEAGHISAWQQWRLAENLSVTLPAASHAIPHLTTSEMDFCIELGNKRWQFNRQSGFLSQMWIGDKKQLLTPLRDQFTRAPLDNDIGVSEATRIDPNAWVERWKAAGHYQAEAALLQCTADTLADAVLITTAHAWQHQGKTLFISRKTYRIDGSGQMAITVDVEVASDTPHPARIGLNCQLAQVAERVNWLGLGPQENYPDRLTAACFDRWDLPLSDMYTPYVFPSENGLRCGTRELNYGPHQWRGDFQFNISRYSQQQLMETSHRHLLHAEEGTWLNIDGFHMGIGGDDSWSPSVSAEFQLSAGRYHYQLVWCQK

Target: T1, β-galactosidase (Escherichia coli, UniProt P00722)
T1 construct: gene lacZ

Row | Compound | ONPG hydrolysis in lysed E. coli cells with 30 μM compound
1 | COCCn1[c]([Ag-][Cl])[n+](Cc2ccccn2)c2ccccc21 [2-Cl] | 1-Cl, 2-Cl and silver nitrate completely blocked OPNG hydrolysis
2 | CC(C)n1[c]([Ag-][Cl])[n+](Cc2ccccn2)c2ccccc21 [1-Cl] | 1-Cl, 2-Cl and silver nitrate completely blocked OPNG hydrolysis
